For seven molecules, Kd results are on record in patent publication US20230203098A1, “HUMAN TRANSFERRIN RECEPTOR BINDING PEPTIDE” (priority 2020, published 2023).

Chains of the proteins cited; added tags and fusions are not shown.
UniProt P02786, whole entry: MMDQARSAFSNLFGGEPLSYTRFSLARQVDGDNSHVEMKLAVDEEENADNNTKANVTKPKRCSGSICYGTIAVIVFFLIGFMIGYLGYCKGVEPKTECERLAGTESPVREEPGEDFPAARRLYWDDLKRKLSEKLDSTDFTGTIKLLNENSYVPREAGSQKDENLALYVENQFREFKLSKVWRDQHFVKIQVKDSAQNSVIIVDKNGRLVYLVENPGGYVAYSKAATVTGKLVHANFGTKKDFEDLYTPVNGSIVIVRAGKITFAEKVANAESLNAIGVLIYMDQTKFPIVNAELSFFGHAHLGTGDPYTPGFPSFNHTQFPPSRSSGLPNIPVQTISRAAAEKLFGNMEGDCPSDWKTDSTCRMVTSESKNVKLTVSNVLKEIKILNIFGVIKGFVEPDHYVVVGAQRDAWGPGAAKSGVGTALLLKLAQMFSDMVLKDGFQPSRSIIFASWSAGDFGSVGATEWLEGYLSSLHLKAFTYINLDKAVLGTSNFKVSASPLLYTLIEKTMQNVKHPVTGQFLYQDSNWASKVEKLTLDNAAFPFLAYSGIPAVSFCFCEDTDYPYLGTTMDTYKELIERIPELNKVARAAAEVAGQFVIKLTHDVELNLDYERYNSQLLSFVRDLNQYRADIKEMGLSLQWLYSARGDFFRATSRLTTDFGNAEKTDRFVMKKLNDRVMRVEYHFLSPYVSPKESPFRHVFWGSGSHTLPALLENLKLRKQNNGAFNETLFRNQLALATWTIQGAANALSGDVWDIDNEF

Each structure is given as a SMILES string.

For orientation: Kd means the concentration at which binding is half-saturated.

One assay concerns the target transferrin receptor (hTfR) (Homo sapiens, UniProt P02786). The experiment in a line: Intermolecular interaction evaluation test between transferrin receptor (hTfR) and peptide by surface plasmon resonance (SPR). The following applies: SPR; hTfR No. 894 variants with PEG12c linker (Table 2); read-out: KD. In kind it is binding. How it is done: For each of the various synthesized peptides, the intermolecular interaction of the peptide with the transferrin receptor (hTfR) was tested by surface plasmon resonance (SPR) according to the following method. The specific test method is as follows.
An NTA sensor chip (Global Life Sciences Technologies Japan) was inserted in a Biacore T200 (Global Life Sciences Technologies Japan) and a prime operation was performed 3 times with a running buffer: 10 mM HEPES pH 8.0 (Nacalai Tesque), 150 mM NaCl (Nacalai Tesque), 0.05% Tween 20 (Nacalai Tesque), 0.1% BSA (Sigma-Aldrich), 1.0% DMSO (FUJIFILM Wako Pure Chemical) to create an Equilibration state at a flow rate of 30 µL/min. After reacting with 350 mM EDTA solution for 60 seconds at a flow rate of 10 µL/min then reacting with 0.5 mM NiCl2 solution (Kishida Chemical) for 60 seconds at a flow rate of 10 µL/min, the NTA sensor chip was washed with 3 mM EDTA solution (Nacalai Tesque) for 60 seconds at a flow rate of 10 µL/min. After mixing 50 µL each of 60 mM EDC solution (Global Life Sciences Technologies Japan) and 650 mM NHS solution (Global Life Sciences Technologies Japan), the mixture was reacted for 420 seconds at a flow rate of 10 µL/min. By diluting with the running buffer, 150 µL of 3.2 µM hTfR solution was prepared and used for reaction for 600 seconds at a flow rate of 10 µL/min, thereby immobilizing hTfR on the NTA sensor chip. After immobilization, capping was performed by reacting with 1.0 M ethanolamine aqueous solution (Global Life Sciences Technologies Japan) for 420 seconds at a flow rate of 10 µL/min. A peptide dissolution liquid prepared to 10 mM in the DMSO solution was diluted with the running buffer to a final concentration of 10 µM so as to become the peptide dissolution liquid, then peptide solutions of 100 nM, 50 nM, 25 nM, 10 nM and 5 nM were prepared. Kinetics of the peptide to hTfR was acquired by SPR measurement using the above-mentioned samples. Single-cycle kinetics was used as a kinetic evaluation model and curve fitting was performed using Biacore T200 Evaluation Software Version 3.0 (Global Life Sciences Technologies Japan). An obtained sensorgram was subjected to curve fitting using the least-squares method, and the binding of the peptide to hTfR was evaluated by obtaining KD values. […] A chemical structure of hTfR No. 894 is as follows.
The variant peptides were synthesized according to Example 1 unless otherwise stated in Example 9 or 10. The linker-added peptides were synthesized according to Example 1, except that Fmoc-NH-SAL-PEG resin (Watanabe Chemical Industries) was used as a resin for the peptide synthesis when the linker was PEG. The peptide, to which a peptide, a fatty acid, PEG, or a conjugate thereof is added as a linker, was also synthesized according to Example 1, unless otherwise stated in Example 9 or 10.
For the molecule `CC[C@H](C)[C@@H]1NC(=O)[C@H](Cc2ccc(O)cc2)NC(=O)[C@H](Cc2ccc(O)cc2)NC(=O)[C@H](CC(N)=O)NC(=O)[C@H](Cc2c[nH]c3ccccc23)NC(=O)[C@H](C(C)C)NC(=O)[C@H](Cc2ccccc2)N(C)C(=O)[C@H](C(C)C)NC(=O)[C@H](CO)NC(=O)CSC[C@@H](C(=O)NCCOCCOCCOCCOCCOCCOCCOCCOCCOCCOCCOCCOCCC(N)=O)NC(=O)[C@H](Cc2ccc(O)cc2)N(C)C(=O)[C@H](Cc2ccc(O)cc2)NC(=O)[C@H](CCCNC(=N)N)NC(=O)[C@H](CCCNC(=N)N)NC(=O)[C@H]([C@@H](C)CC)NC1=O` [compound 132], the dissociation constant (Kd) is 1 to 100 nM.
`CC[C@H](C)[C@@H]1NC(=O)[C@H](Cc2ccc(O)cc2)NC(=O)[C@H](Cc2ccc(O)cc2)NC(=O)[C@H](CC(N)=O)NC(=O)[C@H](Cc2c[nH]c3ccccc23)NC(=O)[C@H](C(C)C)NC(=O)[C@H](Cc2ccccc2)N(C)C(=O)[C@H](C(C)C)NC(=O)CNC(=O)CSC[C@@H](C(=O)NCCOCCOCCOCCOCCOCCOCCOCCOCCOCCOCCOCCOCCC(N)=O)NC(=O)[C@H](Cc2ccc(O)cc2)N(C)C(=O)[C@H](Cc2ccc(O)cc2)NC(=O)[C@H](CCCNC(=N)N)NC(=O)[C@H](CCCNC(=N)N)NC(=O)[C@H]([C@@H](C)CC)NC1=O` [compound 131]: the Kd lay in the range of 1 to 100 nM.
For `CC[C@H](C)[C@@H]1NC(=O)[C@H](Cc2ccc(O)cc2)NC(=O)[C@H](Cc2ccc(O)cc2)NC(=O)[C@H](CC(N)=O)NC(=O)[C@H](Cc2c[nH]c3ccccc23)NC(=O)[C@H](C(C)C)NC(=O)[C@H](Cc2ccccc2)N(C)C(=O)[C@H](C(C)C)NC(=O)[C@H](Cc2ccccc2)NC(=O)CSC[C@@H](C(=O)NCCOCCOCCOCCOCCOCCOCCOCCOCCOCCOCCOCCOCCC(N)=O)NC(=O)[C@H](Cc2ccc(O)cc2)N(C)C(=O)[C@H](Cc2ccc(O)cc2)NC(=O)[C@H](CCCNC(=N)N)NC(=O)[C@H](CCCNC(=N)N)NC(=O)[C@H]([C@@H](C)CC)NC1=O` [compound 138], the Kd was in the range of 100 to 1000 nM.
On the same count and under the same terms, the value for `CC[C@H](C)[C@@H]1NC(=O)[C@H](Cc2ccc(O)cc2)NC(=O)[C@H](Cc2ccc(O)cc2)NC(=O)[C@H](CC(N)=O)NC(=O)[C@H](Cc2c[nH]c3ccccc23)NC(=O)[C@H](CO)NC(=O)[C@H](Cc2ccccc2)N(C)C(=O)[C@H](C(C)C)NC(=O)[C@H](C)NC(=O)CSC[C@@H](C(=O)NCCOCCOCCOCCOCCOCCOCCOCCOCCOCCOCCOCCOCCC(N)=O)NC(=O)[C@H](Cc2ccc(O)cc2)N(C)C(=O)[C@H](Cc2ccc(O)cc2)NC(=O)[C@H](CCCNC(=N)N)NC(=O)[C@H](CCCNC(=N)N)NC(=O)[C@H]([C@@H](C)CC)NC1=O` [compound 141] was 100 to 1000 nM; that for `CC[C@H](C)[C@@H]1NC(=O)[C@H](Cc2ccc(O)cc2)NC(=O)[C@H](Cc2ccc(O)cc2)NC(=O)[C@H](CC(N)=O)NC(=O)[C@H](Cc2c[nH]c3ccccc23)NC(=O)CNC(=O)[C@H](Cc2ccccc2)N(C)C(=O)[C@H](C(C)C)NC(=O)[C@H](C)NC(=O)CSC[C@@H](C(=O)NCCOCCOCCOCCOCCOCCOCCOCCOCCOCCOCCOCCOCCC(N)=O)NC(=O)[C@H](Cc2ccc(O)cc2)N(C)C(=O)[C@H](Cc2ccc(O)cc2)NC(=O)[C@H](CCCNC(=N)N)NC(=O)[C@H](CCCNC(=N)N)NC(=O)[C@H]([C@@H](C)CC)NC1=O` [compound 126] was 100 to 1000 nM.
The same measure, in the same setting: to `CC[C@H](C)[C@@H]1NC(=O)[C@H](Cc2ccc(O)cc2)NC(=O)[C@H](Cc2ccc(O)cc2)NC(=O)[C@H](CC(N)=O)NC(=O)[C@H](Cc2c[nH]c3ccccc23)NC(=O)[C@H](C)NC(=O)[C@H](Cc2ccccc2)N(C)C(=O)[C@H](C(C)C)NC(=O)[C@H](C)NC(=O)CSC[C@@H](C(=O)NCCOCCOCCOCCOCCOCCOCCOCCOCCOCCOCCOCCOCCC(N)=O)NC(=O)[C@H](Cc2ccc(O)cc2)N(C)C(=O)[C@H](Cc2ccc(O)cc2)NC(=O)[C@H](CCCNC(=N)N)NC(=O)[C@H](CCCNC(=N)N)NC(=O)[C@H]([C@@H](C)CC)NC1=O` [compound 144] belongs 100 to 1000 nM.

The same assay, now with this note: hTfR binding by SPR; hTfR No. 894 variant peptides, linker-added peptides and payload conjugates (Table 2); read-out: KD value obtained from the SPR measurement.
For the molecule `CC[C@H](C)[C@@H]1NC(=O)[C@H](Cc2ccc(O)cc2)NC(=O)[C@H](Cc2ccc(O)cc2)NC(=O)[C@H](CC(N)=O)NC(=O)[C@H](Cc2c[nH]c3ccccc23)NC(=O)[C@H](C(C)C)NC(=O)[C@H](Cc2ccccc2)N(C)C(=O)[C@H](C(C)C)NC(=O)[C@H](C)NC(=O)CSC[C@@H](C(=O)NCC(=O)NCC(=O)N[C@@H](CO)C(=O)NCC(=O)N[C@@H](CCC(=O)O)C(=O)N[C@@H](CO)C(=O)N[C@@H](CCCCNC(=O)C2CCC(CN3C(=O)C=CC3=O)CC2)C(N)=O)NC(=O)[C@H](Cc2ccc(O)cc2)N(C)C(=O)[C@H](Cc2ccc(O)cc2)NC(=O)[C@H](CCCNC(=N)N)NC(=O)[C@H](CCCNC(=N)N)NC(=O)[C@H]([C@@H](C)CC)NC1=O` (stereo partly shown) [compound 191], the Kd was in the range of 1 to 100 nM.
